Data: ChEMBL document CHEMBL1132351, “Synthesis, in vitro pharmacology, and molecular modeling of very potent tacrine-huperzine A hybrids as acetylcholinesterase inhibitors of potential interest for the treatment of Alzheimer's disease” (J Med Chem, 1999)

Molecular target: Acetylcholinesterase (Bos taurus, UniProt P23795)

Structure (SMILES)	IC50 [nM]
CCCCC1=CC2Cc3nc4ccccc4c(N)c3C(C1)C2 (configuration not stated)	280
CCCC1=CC2Cc3nc4ccccc4c(N)c3C(C1)C2 (configuration not stated)	431
